Where two headings read alike, the source gives them in different places.
Legend:
[1] = biological target: T1, CCL17 (Homo sapiens, UniProt Q92583); assay: TRIC-r calcium assay, neutraligand protocol: compound preincubated with CCL17, EGFP-CCR4+Gqi5+ HEK cells; type: cell-based; settings: 5 nM CCL17 preincubated 1 h with compound, 21 °C; read-out: IC50 for CCL17 neutralization (calcium assay)
T1 construct: codes for the mature CCL17 or CCL22 with an N-terminal thioredoxin-hexahistidin (TRX- (His)6) tag; thioredoxin (TRX) (N, cleaved yes); (His)6 (N, cleaved yes); made in house; host or cells: E. coli BL21 (DE3)
T1 sequence (Q92583 24-94): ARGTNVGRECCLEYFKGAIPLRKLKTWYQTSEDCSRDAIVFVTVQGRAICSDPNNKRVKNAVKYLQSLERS
Experimental: (§1) EGFP-CCR4^+Gqi5^+HEKcells were loaded with fluorescent Ca^2+-indicator Indo-1 AM (5μM, Interchim) for 45 min at 37 °C. […] Cells (100,000 cells/well, 100μl) were seeded in black clear bottom 96-well plates (Greiner), and centrifuged at 250 × g for 5 min.
(§2) Two plates (96-well plates, Greiner) were prepared for the screen: one containing test compounds alone in order to determine their direct agonistic activity, and another one containing test compounds mixed with CCL17 or CCL22 at room temperature for 1 h (neutraligand protocol). The chemokines and test compounds were prepared at a 3× concentration, while digitonin was prepared at a 4× concentration. […]
(§3) Dye loaded cells were placed in the FlexStation 3 (Molecular Devices). […] The calcium response values (height of peak response over baseline) were determined. […] The Z’ factor[29] was calculated according to the following equation: Z’ = 1-(3SD+ + 3SD−)/|Ave+ − Ave−|, where SD+ and Ave+ are respectively the standard deviation and the mean value of the positive controls (chemokine + DMSO), while SD− and Ave− are respectively the standard deviation and the mean value of the negative controls (HEPES-BSA (0.1%) mixed with DMSO, or cells mixed with C-021). Hit molecules were confirmed by performing concentration-response curves and their half maximal inhibitory concentration (IC50) values were calculated using the Kaleidagraph software.

[2] = biological target: T2, CCL22 (Homo sapiens, UniProt O00626); assay: TRIC-r calcium assay, neutraligand protocol: compound preincubated with CCL22, EGFP-CCR4+Gqi5+ HEK cells; type: cell-based; settings: 10 μM compound, 5 nM CCL22, EGFP-CCR4+ HEK cells
T2 construct: codes for the mature CCL17 or CCL22 with an N-terminal thioredoxin-hexahistidin (TRX- (His)6) tag; thioredoxin (TRX) (N, cleaved yes); (His)6 (N, cleaved yes); made in house; host or cells: E. coli BL21 (DE3)
T2 sequence (O00626 25-93): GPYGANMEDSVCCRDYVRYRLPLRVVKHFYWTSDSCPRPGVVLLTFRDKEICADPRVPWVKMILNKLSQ
Experimental: as §1, §2, §3

[3] = biological target: T1, CCL17; assay: Tryptophan fluorescence assay on CCL17; type: binding; settings: 1.5 μM CCL17, tryptophan fluorescence at 340 nm
Experimental: Fluorescence measurements were performed on a spectrofluorometer (JobinYvon/Spex) in a quartz microcuvette at 20 °C. CCL17 and CCL22 (1.5 μM in HEPES buffer without BSA) were excited at 285 nm and emission spectra were recorded (300–400 nm). Initial fluorescence intensities (F0) of CCL17 or CCL22 alone were acquired at 340 nm, followed by subsequent readings (relative fluorescence, F) after sequential addition of 1μl of compounds (GPN279 or GPN136 or C-021 in DMSO) or DMSO alone. The fluorescence emission spectra were corrected by subtracting the emission scan of the compounds alone and data analysis was carried out with fluorescence intensities detected at 340 nm.

[4] = biological target: T1, CCL17; assay: CCL17-mediated EGFP-CCR4 receptor internalization (flow cytometry); type: cell-based; settings: 100 nM CCL17, 30 min, 0.03–3 μM compound; read-out: half-maximal efficiency, inhibition of CCL17-mediated CCR4 internalization
Experimental: (§4) Figure 6 (a) Selectivity of CCL17 and CCL22 neutraligands towards 10 chemokines according to the “neutraligand protocol”. Inhibition by DMSO (black bars), GPN279 (grey bars) and GPN136 (white bars) (10 μM) of calcium responses triggered by either 5 nM CCL2 on EGFP-CCR2^+ HEK cells, by 5 nM CCL3, CCL4 and CCL5 on EGFP-CCR5^+ HEK cells, by 5 nM CCL17 and CCL22 on EGFP-CCR4^+ HEK cells, by 5 nM CXCL8 on EGFP-CXCR2^+ HEK cells, by 5 nM CXCL10 and CXCL11 on EGFP-CXCR3^+ HEK cells, or by 5 nM CXCL12 on EGFP-CXCR4^+ HEK cells. Each column represents the mean (block) ± SD (bars) of n = 3 experiments performed in triplicate. *p < 0.05; **p < 0.01; ***p < 0.005 as compared to chemokine + DMSO. (b) Chemokine neutraligands inhibited CCR4 endocytosis induced by CCL22 or CCL17. […] Cell surface EGFP-tagged CCR4 receptors were measured by EGFP antibody labeling and flow cytometry analysis. CCR4 internalization was expressed as a percentage of total receptor surface expression calculated using control cells incubated with DMSO (100%). […] The number of migrating cells in the presence of chemokine and compounds were expressed as the corresponding percentages. Results were analyzed by fitting the experimental curves (% of migrating cells vs log compound concentration) using the Kaleidagraph software program, and the corresponding IC50 values were calculated. […]

[5] = biological target: T1, CCL17; assay: CCL17-induced CCR4+ HUT78 T cell chemotaxis (Transwell), neutraligand protocol; type: cell-based; settings: 3 nM CCL17 preincubated 1 h with compound; read-out: IC50, inhibition of CCL17-induced HUT78 chemotactic response
Experimental: as §4

Which IC50 [1] does the source give for `CC(C)=CCn1cnc2c1c(=O)n(C)c(=O)n2C` [GPN279, 1,3-dimethyl-7-(3-methylbut-2-enyl)-1H-purine-2,6(3H, 7H)-dione] here?
Its IC50 is 7100 ± 1700 nM.

What about the “inhibition of CCL22-evoked calcium responses (selectivity)” value [2] of the same compound?
The value was “no effect”.

And the Kd ([3]; estimated, read-out: KD, high-affinity binding site class, on CCL17)?
Its Kd is < 50 nM.

And the Kd ([3]; read-out: KD, low-affinity binding site class, on CCL17)?
The Kd was 57000 nM.

And the IC50 [4]?
Its IC50 is ~200 nM.

What about the IC50 [5] of the same compound?
Its IC50 is 0.15 ± 0.01 nM.
